Experimental data as given in patent US5576436A, “Fluorescent ligands” (Pharmaceutical Discovery Corporation, priority 1994, dated 1996).

Test system: Glycine
Assay: Fluorescent ligand binding, glycine receptor (strychnine-insensitive)
Details: result in words

SMILES: O=C(NCCCCCCNc1ccc([N+](=O)[O-])c2nonc12)c1cc(O)c2c(Cl)cc(Cl)cc2n1 [PDC 002.083]
- activity/usefulness in an assay for binding as measured using the fluorescent label: active and useful
